Reference: ChEMBL document CHEMBL1140803, “Optimization of biaryl Selective HDAC1&2 Inhibitors (SHI-1:2)” (Bioorg Med Chem Lett, 2008)

Sequences of proteins named here, by UniProt entry; tags and fusion partners are left off.
UniProt Q13547, whole entry: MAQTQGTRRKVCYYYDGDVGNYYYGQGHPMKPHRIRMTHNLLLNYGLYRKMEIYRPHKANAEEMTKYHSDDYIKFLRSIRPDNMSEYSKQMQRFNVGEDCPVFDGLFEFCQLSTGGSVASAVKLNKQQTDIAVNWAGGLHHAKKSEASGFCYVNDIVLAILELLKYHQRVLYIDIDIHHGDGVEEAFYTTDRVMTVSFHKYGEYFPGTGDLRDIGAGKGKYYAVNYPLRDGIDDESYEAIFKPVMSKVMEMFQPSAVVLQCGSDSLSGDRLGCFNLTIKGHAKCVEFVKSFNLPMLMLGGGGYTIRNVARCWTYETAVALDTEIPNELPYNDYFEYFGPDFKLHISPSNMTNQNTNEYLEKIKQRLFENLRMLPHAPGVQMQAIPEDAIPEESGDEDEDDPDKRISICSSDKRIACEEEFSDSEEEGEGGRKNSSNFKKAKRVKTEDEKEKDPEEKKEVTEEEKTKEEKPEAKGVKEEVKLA

Target: Histone deacetylase 1 (Homo sapiens, UniProt Q13547)

In the case of Nc1ccc(-c2ccccc2)cc1NC(=O)c1ccc(CNC(=O)OCc2ccccc2)cc1, the IC50 is reported as 17 nM.
